## AlphaSeq binding of Ab-14 heavy chain variants to a spike HR2 peptide

Values reported by Li et al. 2023, doi:10.1038/s41467-023-39022-2 (FLAb copy).

The target is the same throughout: PDVDLGDISGINAS, from the HR2 region of SARS-CoV-2 spike.

Parent: Ab-14, a human scFv built as VH, three GGGGS repeats, VL. Only the CDRs of the heavy chain vary.
VH: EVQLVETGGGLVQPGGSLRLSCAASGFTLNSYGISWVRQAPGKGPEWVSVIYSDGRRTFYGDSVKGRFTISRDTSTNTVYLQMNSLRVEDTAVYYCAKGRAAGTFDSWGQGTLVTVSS
VL: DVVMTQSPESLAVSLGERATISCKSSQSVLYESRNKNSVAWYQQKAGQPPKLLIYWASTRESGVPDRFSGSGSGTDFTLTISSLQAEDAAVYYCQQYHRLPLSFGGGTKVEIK

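The parent was found by panning a naive human phage display library on the peptide. This is the validation round: designs drawn from the data on random variants, tested in the same kind of assay. Group labels follow the data file (Ctrl: baseline library sampled from a position-specific scoring matrix, with some repeated check sequences; Rand: our label for a block that the file lists under HC and that is probably the random mutants of the ten best first-round binders; En: ensemble of fine-tuned language models; GP: Gaussian process model; GPLM: also part of the Gaussian process libraries; HC: hill climbing; Gen: genetic algorithm; Gibbs: Gibbs sampling; a sequence that several methods proposed may carry one label only). In AlphaSeq, yeast of one mating type display the scFv and yeast of the other type display the target. Binding brings cells together so that they mate, and sequencing counts the barcode pairs among the diploids. Read counts were normalised to the haploid input and turned into Kd by a linear fit to BCL2-family pairs of known affinity, for each replicate. There are six technical replicates.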

Variants are written as CDR1, CDR2 and CDR3 of the heavy chain (limits as in the source). Parent: GFTLNSYGIS, VIYSDGRRTFYGDSVK, GRAAGTFDS. Numbers give log10(Kd / nM), so 0 is 1 nM and 3 is 1 µM. Smaller is tighter. A pair that was not seen in that replicate is written "nd"; this usually means weak binding, but a binder can also be missed. Some sequences occur more than once in the pool; their replicates are listed entry by entry, parted by semicolons. A sequence measured in both rounds can read differently, since the two assays cover different ranges. Of ten entries with the parent sequence, four were seen in most replicates (averages 0.34 to 2.37), three in one and three in none, so single entries are noisy. Empty control strains, which show no peptide, gave a signal in 1% of pairings with all heavy chain designs; the median was 2.08 and 95% of these signals were weaker than 0.84. No background was subtracted. The authors' rule: three or more of the six replicates give a measured affinity, fewer mean a poor binder.

log10 Kd (nM) by replicate	CDR-H1	CDR-H2	CDR-H3	group
0.92 1.55 1.23 1.22 1.44 1.18	GFGLNEYGIS	VIYSDGRRTFYGDSVK	GRTAGTFDT	GPLM_Gibbs
0.47 0.05 0.53 0.23 0.15 0.90	GFTLNEYGIS	VIYSDGRRTFYGDSVK	GFAAGTFDT	GP_HC
0.93 1.23 1.05 0.35 0.82 0.89	GFPLNEYGIS	VIYSDGRRTFYGDSVK	GQTAGTFDS	GP_Gen
-0.73 0.47 -0.06 -0.04 -0.29 -0.49	GFTLNSYGIS	VIYSDGRRTFYGDNVK	GRAAGTFSS	Ctrl
-0.30 -0.32 -0.48 -0.39 -0.24 -0.05	GFDLNEYGIS	VIYADGMRTYYADDVK	GNQAGTFDI	En_Gen
1.18 1.04 0.99 0.89 1.90 1.46	GFTLNSYGIS	VIYSDGKRTFYIDSVK	GREAGTFDS	GP_Gen
-0.48 -0.34 -0.57 -0.37 -0.41 -0.21	GFDLDEYGIS	VIYADGRRTFYQDSVK	GNVAGTFDF	En_HC
nd 1.83 2.03 2.39 1.29 1.17	KFELNSYGIS	VIYSDGRRTFYADSVK	GRLAGTFDS	GP_Gibbs
nd nd 1.52 nd 1.97 nd	GFELNSYGIS	VIYSDGRRTFYLDSVK	GQLAGTFDS	GP_HC
0.72 -0.02 0.11 -0.16 0.21 0.66	GFDLDEYGIS	VIYADGMRTFYADSVK	GNEAGTFDS	En_HC
1.97 2.30 1.52 nd nd 1.42	GFDLDEYGIS	VIYADGSRTAYADSVK	GQNAGTFDI	En_Gen
-0.96 -0.68 nd 1.22 nd nd	GFDLNEYGIS	VIYADGQRTFYADSVK	GEVAGTFVS	En_HC
nd nd nd 1.40 nd nd	GFTLNEYGIS	VIYSDGRRTFYTDSVK	GRFAGTFRS	Rand
nd nd nd 3.34 nd nd	GFDLNEYGIS	VIYADGRRTFYTDSVK	GGNAGTFIM	En_HC
0.74 -0.62 0.03 1.26 0.61 -0.37	GFDLNEYGIS	VIYADGRRTSYADSVK	GNVAGTFDT	En_HC
nd 2.47 nd 0.94 nd 1.16	GFTLESYGIS	VIYSDGRRTFYDDSVK	GQAAGTFDS	GP_HC
0.67 -0.30 -0.98 -1.03 0.27 -0.62	GFDLDEYGIS	VIYADGMRTAYSDKVK	GNQAGTFDV	En_Gen
nd 0.76 0.40 0.98 0.91 1.02	GFWLNDYGIS	VIYSDGRRTFYDDSVK	GRTAGTFDS	GP_Gibbs
2.19 nd 1.77 1.76 0.95 1.79	GFTINDYGIS	VIYSDGRRTQYIDSVK	GRAAGTFDS	Rand
2.99 2.64 2.39 2.95 2.54 2.37	GFTLNSYGIS	VIYSDGRRTFYADDVK	GEAAGTFKS	GP_HC
1.15 0.53 -0.05 -0.12 0.47 0.20	GFNLNSYGIS	VIYSDGRRTFYGDSVK	GKTAGTFDS	GPLM_Gibbs
nd nd nd nd nd nd	GFTLNSYGIS	VIYSDGRRTFYGDSVK	GRAAGTFND	Ctrl
-0.19 -1.21 -0.80 -1.07 -1.16 -0.51	GFDLNEYGIS	VIYADGQRTAYADSVK	GNNAGTFDI	En_Gen
0.14 -0.44 -0.29 -0.78 0.01 -0.64	GFSLNSYGIS	VIYSDGRRTFYADDVK	GEAAGTFDS	GPLM_Gen
nd nd nd nd nd nd	GFTLNSYGIS	VIESDGRRTFYGDSVK	IRQAGTFDS	Ctrl
-0.36 -0.16 -0.04 -0.81 -0.49 -0.14	GFDLNSYGIS	VIYSDGRRTFYGDSVK	GSAAGTFDA	GP_Gen
1.02 1.30 0.36 nd 0.34 0.61	GFDLNEYGIS	VIYSDGRRTFYHDSVK	GRFAGTFDS	GP_HC
0.77 1.13 0.96 1.06 0.87 1.04	GFNLNSYGIS	VIYSDGRRTFYKDSVK	GQAAGTFDS	GPLM_Gibbs
-0.09 -0.43 -0.31 -0.56 -0.62 -0.47	GFDLNEYGIS	VIYADGMRTAYSDSVK	GGNAGTFDS	En_HC
nd nd nd 1.63 nd nd	GFTLNSYGIS	VIYSDGRRTFYIDSVK	GQAAGTFDL	GPLM_Gen
0.07 -0.34 -0.59 -0.36 -0.32 -0.22	GFDLNEYGIS	VIYADGQRTFYTDSVK	GANAGTFDS	En_HC
0.34 0.13 0.15 0.34 0.35 0.39	GFSLNSYGIS	VIYSDGRRTFYDDSVK	GQVAGTFDS	GPLM_Gen
nd nd nd nd nd nd	GYDLNEYGIS	VIYADGRRAAYIDDVK	GNVNDGVLV	En_Gibbs
1.35 0.85 0.17 0.15 0.37 0.57	GFDLNSYGIS	VIYSDGRRTFYGDSVK	GRYAGTFDS	GPLM_HC
-0.16 -0.39 -0.55 -0.71 -0.95 -0.27	GFNLNEYGIS	VIYADGRRTFYADSVK	GGIAGTFDV	En_HC
nd nd 1.96 nd 1.94 nd	GFNLNDYTIS	VIYSDGNRTQYIWSVK	GRAAGTFDS	Rand
-0.19 -0.39 -0.15 0.06 -0.60 -0.22	GFDLDEYGIS	VIYADGMRTAYANSVK	GNQAGTFDV	En_Gen
-0.11 0.13 -0.16 -0.40 -0.03 -0.36	GFSLNEYGIS	VIYSDGRRTFYGDPVK	GRTAGTFDD	GP_Gibbs
nd nd 0.52 nd nd nd	GFTLESYGIS	VIYSDGRRTFYSDSVK	GRAAGTFSS	GP_HC
nd nd nd nd nd nd	GESLEEYGIS	VIYADGIREQYVDSVK	GEQGGFFVV	En_Gibbs
1.36 1.82 1.12 1.27 1.45 1.75	GKGLDEYGVS	VIYADGVRKSYVDDVK	GGIAGTFLY	En_Gibbs
nd nd nd nd nd nd	GFTLESYGIS	VIYSDGRREFYGDSVK	GRQAGTFDY	Ctrl
nd nd nd nd nd nd	GDSLDEYGIS	VIYADGQRSFYADSVK	GEHDGLFFQ	En_Gibbs
1.16 1.70 1.08 1.80 1.95 1.14	GFNLNSYGIS	VIYSDGRRTFYVDSVK	GRQAGTFDA	GPLM_Gibbs
-0.16 -0.69 0.09 -0.44 -0.32 -0.73	GFDLNEYGIS	VIYADGRRTQYIDSVK	GETAGTFDD	En_HC
1.11 1.53 1.86 nd 0.92 nd; 0.48 0.67 0.51 0.50 0.46 0.75	GFTLNSYGIS	VIYSDGRRTFYSDSVK	GSAAGTFDS	Ctrl+GPLM_Gen
0.48 -0.22 -0.32 -0.59 -0.58 -0.06	GFSLNSYGIS	VIYSDGRRTFYADNVK	GMTAGTFDS	GP_Gibbs

Excerpt, the final 6 entries:

CDR-H1	CDR-H2	CDR-H3	group	log10 Kd (nM) by replicate
GFTLESYGIS	VIYSDGRREFYGDSVK	GRQAGTFDY	Ctrl	nd nd nd nd nd nd
GDSLDEYGIS	VIYADGQRSFYADSVK	GEHDGLFFQ	En_Gibbs	nd nd nd nd nd nd
GFNLNSYGIS	VIYSDGRRTFYVDSVK	GRQAGTFDA	GPLM_Gibbs	1.16 1.70 1.08 1.80 1.95 1.14
GFDLNEYGIS	VIYADGRRTQYIDSVK	GETAGTFDD	En_HC	-0.16 -0.69 0.09 -0.44 -0.32 -0.73
GFTLNSYGIS	VIYSDGRRTFYSDSVK	GSAAGTFDS	Ctrl+GPLM_Gen	1.11 1.53 1.86 nd 0.92 nd; 0.48 0.67 0.51 0.50 0.46 0.75
GFSLNSYGIS	VIYSDGRRTFYADNVK	GMTAGTFDS	GP_Gibbs	0.48 -0.22 -0.32 -0.59 -0.58 -0.06